Source: PubChem BioAssay
This is a sample that favours compounds with a hit; in the whole collection about 0.44% have one here.
Rango dissoc inh = prevents RanGTP from dissociating the Rango-importin beta complex | Biochemical FRET Rango-importin beta, RanGTP-induced dissociation | O95149+P62826 | Potency, µM (top dose mostly 46.1 µM) | 340,000 compounds, 0.071% hits; note: nearly all actives have a fitted effect of over 45% in size
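Quantitative HTS using a FRET biosensor: 0.1 uM Rango, 0.25 uM importin beta, 0.6 uM Ran, 2 mM GTP, 0.2 uM RCC1 final, PBS with DTT, Tween-20 and BSA. Post-read taken 45 min after Ran addition.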
KinaseGlo FLuc = counter-screen: inhibitors of Kinase-Glo firefly luciferase; Q27757; Kinase-Glo luciferase, ATP luminescence, 8 min; Potency, µM (doses to about 38.3 µM), hits mostly inhibitors; 200,000 compounds, 0.28% hits; active = well fitted curve in the direction sought with a large enough effect; inconclusive = small, poorly fitted or top-dose-only effect, or another doubt; inactive = no such curve, though single readings can be large; an effect the other way counts as inactive or inconclusive; note: nearly all actives have a fitted effect of over 60% in size
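Luminescence was the read-out, taken after 8-minute incubation at ambient temperature. Luciferase turned over luciferin with 10 uM ATP in imidazole pH 7.2 buffer containing KCl, MgCl2, Tween 20 and BSA.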
Rango complex inh = inhibitors of Rango-importin beta complex formation; Q14974; Rango CFP/YFP FRET sensor + importin beta, 45 min; Potency, µM (series often up to 92.2 µM); 340,000 compounds, 0.031% hits; AID 540263; note: nearly all actives have a fitted effect of over 15% in size
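FRET biosensor (snurportin 1 IBB flanked by EYFP and cerulean), 50 nM, with compound 5 min, then 0.125 microM importin beta in PBS, 1 mM DTT, 0.02% Tween-20, 0.1% BSA. CFP/YFP ratio read after 45 min at room temperature; pre-read flags interference.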
Tb PFK block = inhibitors of T. brucei phosphofructokinase; O15648; T. brucei PFK, ADP-Glo luminescence; Potency, µM (doses to about 57.5 µM), most hits filed as inhibitors; 330,000 compounds, 0.17% hits; AID 485367; active = well fitted curve in the direction sought with a large enough effect; inconclusive = small, poorly fitted or top-dose-only effect, or another doubt; inactive = no such curve, though single readings can be large; an effect the other way counts as inactive or inconclusive; note: nearly all actives have a fitted effect of over 60% in size
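PFK 1.25 nM, F6P 0.5 mM, ATP 0.1 mM, 0.1 M TEA pH 8.0, 5 mM MgCl2, 0.01% Tween20, 0.1% BSA; 45 min RT. ADP-Glo readout. qHTS titration up to 57 uM; curves fitted, compounds curve-classed.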
Lamin A splicing = LMNA splicing modulation; 200,000 compounds, 0.01% hits; HeLa LMNA splicing GFP/RFP minigene ratio, 48 h; Potency, µM (highest dose often 46.1 µM), hits mostly inhibitors; active = well fitted inhibition curve with a large enough effect in the signal ratio, with a control signal flat, not every such curve was filed as active; inconclusive = small, poorly fitted or top-dose-only effect, or effect the other way, or a change in a side signal; the % refers to the signal ratio
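S3 HeLa cells stably expressing lamin A-EGFP splicing minigene plus DsRed2, 600 cells/well, 48 h compound exposure at 37C. Laser-scanning cytometry; analysed as GFP (500-530 nm)/RFP (575-640 nm) total intensity ratio; 0.5% DMSO vehicle.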
BCR signal inh = chronic active BCR signaling inhibition | Potency, µM (highest dose often 46.1 µM), actives largely listed as inhibitors | 340,000 compounds, 0.05% hits | ABC-DLBCL IkBa-CBG/CBR reporter, luminescence ratio, 4 h; active = well fitted inhibition curve with a large enough effect in the signal ratio, with a control signal flat, not every such curve was filed as active; inconclusive = small, poorly fitted or top-dose-only effect, or effect the other way, or a change in a side signal; the % refers to the signal ratio
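Compounds up to 46 uM were incubated four hours with TMD8 cells whose green CBG68 luciferase is fused to IkappaBalpha; red CBR luminescence normalised the signal, and concentration-effect curves were fitted to fusion, red and ratio data.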
Numbers stand for hits; – = inactive; ? = inconclusive; · = not tested or not shown; [ ] = dose if it differs, or a comment. Unless noted, calls come from the whole dose curve.

SMILES	Rango dissoc inh	KinaseGlo FLuc	Rango complex inh	Tb PFK block	Lamin A splicing	BCR signal inh
CCn1cc(/C=C2\SC(=O)N(CC(=O)Nc3ccc4c(c3)OCO4)C2=O)c2ccccc21	–	–	–	–	–	–
Cc1cccc(NC(=O)CN2C(=O)S/C(=C\c3cc(C)n(C)c3C)C2=O)c1	23µM	–	?	–	–	?
Cc1c(/C=C2\SC(=O)N(CC(=O)Nc3ccc4c(c3)OCO4)C2=O)c2ccccc2n1C	26µM[inhibitor]	–	?	–	–	–
O=C(CSc1nc2[nH]ncc2c(=O)n1-c1ccccc1Br)NCc1ccccc1Cl	–	–	–	–	·	–
N#CCSc1nc2[nH]ncc2c(=O)n1-c1ccccc1Br	–	10µM	–	–	–	?
CCOC(=O)N1CCc2c(sc(NC(=O)CN3CCOCC3)c2C#N)C1	–	·	–	–	·	?
Cc1ncsc1C(=O)Nc1nc2c(s1)CCCC2	–	6.3µM	–	–	–	?
COC(=O)COc1ccc(S(=O)(=O)N2CCN(c3ccccc3)CC2)cc1	–	–	–	–	–	–
CCc1nn(-c2ccccc2)c2c1-c1cc(OC)c(OC)cc1C1(N2)C(=O)Nc2ccccc21 (stereo not drawn)	16µM	–	?	–	–	?
N=C1C(c2nc3ccccc3[nH]2)=C(O)CN1NC(=O)COc1cccc(F)c1	·	–	·	–	–	–
COc1ccc(C2C(C(=O)NCc3ccccn3)c3cc(OC)c(OC)cc3C(=O)N2C)cc1 (stereo not drawn)	–	–	–	–	–	–
Clc1ccc(OCc2nc(-c3ccccn3)no2)c(Br)c1	–	–	–	–	?	–
COc1ccc(-c2nc(-c3ccccn3)no2)cc1	–	0.89µM	–	?	·	?
Clc1ccc(-c2nc(-c3ccccn3)no2)cc1Cl	–	10µM	–	–	–	–
Brc1ccc(-c2nc(-c3ccccn3)no2)o1	–	13µM	–	–	–	?
Cc1ccccc1-c1nc(-c2cccnc2)no1	–	–	–	–	–	–
COc1ccc(-c2nc(-c3ccncc3)no2)cc1	–	·	–	–	·	?
Cc1ccccc1-c1nc(-c2ccccn2)no1	–	6.3µM	–	–	–	?
CC(C)[C@H](NS(=O)(=O)c1ccccc1F)C(=O)OCC(=O)Nc1cccc(S(N)(=O)=O)c1	–	·	–	–	·	–
O=C(CCNS(=O)(=O)c1ccc2nsnc2c1)N1CCN(c2ccncc2)CC1	–	·	–	–	·	–
O=C1C(C2=C(O)c3ccccc3C2=O)=Nc2ccccc21	–	11µM	–	–	?	–
O=C(O)c1cccc(-n2cccc2/C=C2/NC(=O)N(c3ccc(Cl)cc3)C2=O)c1	16µM	–	?	?	·	?
Cc1onc(-c2ccccc2)c1C(=O)OCC(=O)Nc1ccccc1	–	·	–	–	·	?
O=C(Nc1cc([N+](=O)[O-])ccc1Cl)c1ccc2c(c1)OCO2	–	–	–	–	·	–
C/C(CC(=O)Nc1ccc(Cl)cc1C(F)(F)F)=N\NC(N)=S	–	·	–	–	·	11µM
SMILES	Rango dissoc inh	KinaseGlo FLuc	Rango complex inh	Tb PFK block	Lamin A splicing	BCR signal inh
COc1ccc(Cc2nnc(SCc3c(C)noc3C)n2C2CCCCC2)cc1OC	–	–	–	–	–	?
Cc1noc(C)c1-c1ccc2ncnc(NCCN3CCOCC3)c2c1	·	·	·	·	10µM	·
O=C(CS(=O)(=O)Cc1ccccc1)Nc1ccccc1Cl	–	–	–	–	–	–
CCN1C(=O)/C(=C\N(C(C)=O)c2ccccc2)OC1=S	–	–	–	–	–	?
CC(=O)N(/C=C1\SC(=S)N(c2ccccc2)C1=O)c1ccccc1	16µM	·	?	–	·	–
Cc1ccc(NC(=O)c2noc3c2CCc2ccccc2-3)cc1	–	–	–	–	–	?
O=C(Nc1cccc(O)c1)c1noc2c1CCc1ccccc1-2	–	14µM	?	–	–	?
CCCNc1nc(Nc2ccc(C)cc2)nc(N2CCCC2)n1	–	–	46µM	–	?	?
COc1ccc(Nc2nc(NCCO)nc(N3CCCC3)n2)cc1	–	·	–	·	·	·
O=C(N/N=C/c1cc(Br)c(O)c(Br)c1)c1cccnc1	–	·	–	–	·	?
